The source of these data is PubChem BioAssay AID748 (Sanford-Burnham Center for Chemical Genomics, 2007).

The list shows a part of the results, in another mix than the full data. Measured potencies and affinities stand elsewhere. Some results for these compounds are left out of this collection, so the calls shown say nothing about other tests. The source made the active and inactive calls.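 The calls were made as follows: active = displacement above 50% at 20 µM plus a fluorescence interference ratio under 1.5; inactive = the rest.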

For the experiment, the target named is Bcl-2-like protein 10 (Homo sapiens) (UniProt Q9HD36). The experiment in a line: Bcl-B/TR3 peptide binding disruption – biochemical, fluorescence polarization, FITC-TR3 peptide, selectivity assay for Bfl-1 inhibitor project, primary screen (AID 748).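 Also: plate controls were wells without compound for no effect and wells lacking Bcl-B protein for full effect.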 Particulars: FP displacement of FITC-TR3 peptide from Bcl-B; at 20 µM; stronger effect = higher value.
For the compound `O=C(OC1CN2CCC1CC2)C(CO)(c1ccccc1)c1ccccc1` (stereo not drawn), the displacement was inactive: -2.3%.

As to `CN(C)c1cccc(C(=O)NCC2(N(C)C)CCCCC2)c1`, the displacement was inactive: -3%.

As for `CC(C)N1C(=O)CC2(CCN(CCOC(=O)C(O)(c3ccccc3)c3ccccc3)CC2)C1=O`, the displacement was inactive: 5%.
